Bridge positions count the residues as written; N and C are the ends. Peptide text beside a SMILES is read from it. * marks the point of attachment. X1 = CN(C)c1ccc2c(c1)Oc1cc(N(C)C)ccc1C21OC(=O)c2cc(NC(=O)C*)ccc21
Test system: MCF‐7 breast cancer cells
Test: Live cell confocal laser microscopy of TMR‐labeled peptides (cell membrane permeability)
Settings: MCF‐7 cells, 3 μM TMR‐labeled peptide, 5‐min incubation, 5% CO2, nuclei stained with Hoechst 33 342, fluorescence imaging

For `CC(C)C[C@@H]1NC(=O)[C@H](C)NC(=O)[C@H](C)NC(=O)[C@H](CC(C)C)NC(=O)[C@H](CCCCN)NC(=O)CNC(=O)CNC(=O)CNC(=O)CNC(=O)CNC(=O)CNC(=O)CNC(=O)[C@H](CCC(=O)O)NC(=O)[C@H](CC(C)C)NC(=O)[C@H](CCCNC(=N)N)NC(=O)[C@H](CCCNC(=N)N)NC(=O)[C@H](CC(C)C)NC(=O)[C@H](CCC(=O)O)NC(=O)[C@H](CCCNC(=N)N)NC(=O)[C@H](CCC(=O)O)NC(=O)[C@H](CC(C)C)NC(=O)[C@H](CCCNC(=N)N)NC(=O)[C@H](CCCNC(=N)N)NC(=O)[C@H](CC(C)C)NC(=O)[C@H](CCC(=O)O)NC(=O)[C@H](CCCNC(=N)N)NC(=O)[C@H](CSCC(=O)Nc2ccc3c(c2)C(=O)OC32c3ccc(N(C)C)cc3Oc3cc(N(C)C)ccc32)NC(=O)CNC(=O)CSC[C@@H](C(N)=O)NC(=O)[C@H](Cc2ccc(O)cc2)NC(=O)[C@H](C)NC(=O)[C@H](CCCCN)NC(=O)[C@H](CC(C)C)NC(=O)[C@H](CC(C)C)NC(=O)[C@H](CC(C)C)NC(=O)[C@H](CC(C)C)NC(=O)[C@H](CCCCN)NC(=O)[C@H](CC(C)C)NC(=O)[C@H](CCCCN)NC1=O` [TMR‐cHLH‐ERα] ({CH2CO}-GC(X1)RELRRLERELRRLEGGGGGGGKLAALKLKLLLLKAYC-NH2; thioether N-39), the “cell membrane permeability, confocal laser microscopy, 37 °C” value was “appeared diffuse inside the cells and partially accumulated inside the nuclei”.
